The values that follow come from PubChem BioAssay AID1446 (The Scripps Research Institute Molecular Screening Center, 2008).

Where “and” joins values, the source holds several entries; their conditions need not be identical. Equal values may be shown once. The list shows a part of the results, in another mix than the full data. Calls of active or inactive are those of the source.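 Rule for the calls: active = inhibition above the campaign mean plus 3 SD over all tested compounds (cut at about 24% in these data); inactive = the rest.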

The assay in a line: reduced viability of JAK2V617F-dependent Ba/F3 cells, primary screen, JAK2V617F inhibitor project, cell-based, Ba/F3 EpoR-JAK2V617F, luminescence (AID 1446).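 Note: cytokine-independent growth of Ba/F3 cells driven by EpoR plus mutant JAK2; 0% = DMSO-treated cells and 100% = JAK inhibitor I control.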 The settings on record: ATP luminescence, at 5.6 µM, stronger effect = higher value.
Regarding `CCOP(=O)(Nc1ccccc1)OCC`, the inhibition is inactive: -1.85% and inactive: -0.73%.
For `Cc1ccc(NP(=O)(Oc2ccccc2F)Oc2ccccc2F)nc1` the value was inactive: 3.13%.
For `Nc1cccc2ccc([As](=O)(O)O)cc12` the value was inactive: -3%; for `CCN(N=Nc1nonc1N)c1nonc1N`, inactive: -2.93%.
For `O=C(Nc1cc([As](=O)(O)O)ccc1O)c1ccccc1`, the inhibition is inactive: -1.25%.
In the case of `O=[N+]([O-])c1ncn(CCn2ncnc2[N+](=O)[O-])n1` it was inactive: 2.92%.
Consider `CC(C)(C)C(=O)NC(Sc1ccncn1)C(Cl)(Cl)Cl` (stereo unspecified), for which the inhibition is inactive: -1.02%.
Regarding `O=C(O)CNc1ccc([As](=O)(O)O)cc1`, the inhibition is inactive: -2.11%.
For `O=[N+]([O-])c1cccc(NC2=NCC(CBr)S2)c1` (stereo unspecified) the value was inactive: 0.76%; for `COc1ccc(C2=NCC(CBr)S2)cc1` (stereo unspecified), inactive: 0.62%; for `Cc1ccc(NP(=O)(Oc2ccccc2)Oc2ccccc2)nc1`, inactive: -2.58%.
For `O=[N+]([O-])c1cc([N+](=O)[O-])c(CCNc2ccccc2)c([N+](=O)[O-])c1` the value was inactive: 8.92%.
In the case of `CCc1nc2c(n1)c1c(non1O)c1c2no[n+]1[O-]` it was active: 52%; in that of `CC(=O)N1C2C3N(C(C)=O)C1C1N(C(C)=O)C(C(N1C(C)=O)N3C(C)=O)N2C(C)=O`, inactive: -2.02%; in that of `O=[N+]([O-])c1cccc2n[nH]nc12`, inactive: 1.82%.
Take `CCN(/C(=N/P(=O)(N1CCOCC1)N1CCOCC1)N1CCOCC1)c1ccc(OC)cc1`: the inhibition was inactive: 2.42%.
Consider `Nc1ccc([As](=O)(O)c2ccc(N)cc2)cc1`, for which the inhibition is inactive: -3.81%.
In the case of `C[N+]1=C2C=CC=CC=C2SC12C([N+](=O)[O-])=CC([N+](=O)[O-])=C[C-]2[N+](=O)[O-]` (stereo unspecified) it was inactive: -1.57%.
In the case of `CC1CCN(C(=O)Oc2c(Cl)cc(Cl)c3cccnc23)CC1` it was inactive: 1.18%.
In the case of `CC(C)=N/N=C(\N)N[N+](=O)[O-]`, the inhibition is inactive: 0.18%.
For `CN(C)C(=O)OCCc1n(C)cc[n+]1C` the value was inactive: -3.38%.
